## Measured affinities in a library of Ab-14 light chain variants

Binding partner: SARS-CoV-2 spike HR2 peptide, sequence PDVDLGDISGINAS.

Ab-14 is the parent antibody, in scFv form: VH, then three GGGGS repeats, then VL. The heavy chain is unchanged in all variants.
VH: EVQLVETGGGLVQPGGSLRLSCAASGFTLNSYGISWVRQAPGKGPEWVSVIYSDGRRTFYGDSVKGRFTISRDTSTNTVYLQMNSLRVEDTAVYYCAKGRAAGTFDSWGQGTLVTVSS
VL: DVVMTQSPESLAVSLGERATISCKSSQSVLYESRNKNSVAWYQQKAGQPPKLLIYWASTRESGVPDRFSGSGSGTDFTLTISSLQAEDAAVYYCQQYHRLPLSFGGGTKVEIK

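The starting antibody came from a phage panning campaign against this peptide. Designed CDR sequences, proposed from the first random library and measured here. Their group label is 14L_Ctrl (Ctrl: baseline library sampled from a position-specific scoring matrix, with some repeated check sequences). The scFvs were displayed on barcoded MATa yeast, the peptide on MATalpha yeast. Pairs that bind mate more often; barcode pairs of the diploids are counted by sequencing. Read counts were normalised to the haploid input and turned into Kd by a linear fit to BCL2-family pairs of known affinity, for each replicate. Mating was done six times.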

The parent's light chain CDRs are KSSQSVLYESRNKNSVA, WASTRES, QQYHRLPLS; each variant's own CDRs replace them letter for letter.
Scale: log10 of Kd in nM, estimated from mating counts; low values are strong binders.
A mean of the replicates is given; it leaves out those without a signal.
An entry "nd" has no value in the source: the pair was not observed among the diploids in that replicate. This suggests poor binding but is not conclusive.
The range of this assay differs from that of the first round, and the authors advise against merging the two.
Empty control strains, which show no peptide, gave a signal in 4% of pairings with all light chain designs; the median was 2.64 and 95% of these signals were weaker than 1.59. No background was subtracted. For each scFv, signals with the empty controls are counted beside the result.
The authors averaged sequences with at least three values out of six and counted those with two or fewer as poor binders.
Of ten entries with the parent sequence, four were seen in most replicates (averages 0.34 to 2.37), three in one and three in none, so single entries are noisy.

KVSQSVLYESRNKNSVA / GASTRES / QQYPRLPLS: 1.16, 1.00, 0.94, 0.89, 0.88, 1.09 (mean 0.99; controls 1 of 18).
CSSQSVPYESRNLNSVA / GASTRES / QQCHDLPLS: nd, nd, nd, nd, nd, nd (controls 0 of 18).
KSSHSVLYESRNKNSVA / WASTRES / QQYHRLPLS: nd, 1.28, 1.14, nd, 2.68, 1.66 (mean 1.69; controls 1 of 18).
KSSQSVWAESRNKNSVA / WASTRES / QQYCRLPCS: 2.53, 2.34, 1.80, 2.80, 2.47, 1.95 (mean 2.32; controls 1 of 18).
KSSQSVLYESRNFNSVA / WAITRES / QQYTRLPLS: nd, nd, nd, nd, nd, nd (controls 1 of 18).
KMSESVLYELRNKNSVA / WASTRER / QQYSRLPLS: 1.44, 1.20, 1.75, nd, 1.30, 1.40 (mean 1.42; controls 0 of 18).
KGSVSVLYESTNKNSVA / HASTRED / QSYHRLPLS: 0.35, nd, -0.40, 0.59, -0.32, 0.53 (mean 0.15; controls 0 of 18).
KIIQSVLYESRNKNSVA / WASTRES / QQYHRIQLS: nd, nd, nd, 0.11, 1.07, 0.57 (mean 0.58; controls 0 of 18).
CQSQRNLDEERNKNSVA / SASTRPS / QQYHRLPLG: 1.69, 2.79, 2.49, nd, nd, 1.61 (mean 2.15; controls 0 of 18).
KSSTSVLYESRNKNSVA / WASTRES / QQYHRLPLS: 2.32, 1.84, 1.46, 1.68, 1.66, 1.84 (mean 1.80; controls 1 of 18).
KSSQSSLYESRNKNSVA / EASTRES / QQYHRLPLS: 0.14, 0.36, 0.31, 0.20, 0.30, 0.73 (mean 0.34; controls 1 of 18).
KSSQSHLYEERNKNSVA / WASTRES / QQYHRLPLS: nd, nd, nd, 2.01, nd, 1.74 (mean 1.88; controls 0 of 18).
KSSQSILPESRNKNSVA / WASTRES / QQYHRLPLS: nd, 2.24, nd, 1.08, nd, nd (mean 1.66; controls 1 of 18).
KSSQSVLYESRNKNSVA / WASTRES / QQYHELPLS: nd, nd, nd, nd, nd, nd (controls 1 of 18).
QSSQSVLYESRNKNSVA / WASTRES / QQYHRLVLK: nd, nd, nd, nd, nd, nd (controls 0 of 18).
KSSQSVLLESRNYNSVA / GAYTRES / QQYHRLPLS: 1.21, 1.10, 0.91, 0.85, 0.76, 1.00 (mean 0.97; controls 1 of 18).
KSSQSVFYESRNKNSVA / WGSTRES / QLYHRLPLS: nd, nd, nd, nd, 2.97, 3.48 (mean 3.23; controls 0 of 18).
GSGQSVLMESRNHNSVA / KASTRES / QQYLRLPLS: 1.61, 1.68, nd, nd, nd, nd (mean 1.65; controls 0 of 18).
KMSQSVLYASRNKNSVA / WASTRES / QQYHRLPLS: nd, 1.52, 1.62, 1.48, 2.14, 1.83 (mean 1.72; controls 2 of 18).
KSSQSALGESRNKNSVA / AASTRES / QQYHRLPLS: 0.32, 0.39, 0.36, 0.14, 0.45, 0.44 (mean 0.35; controls 1 of 18).
KVSQSVLYERRNKNSVA / WARNRES / QQYHRIPLS: nd, nd, nd, nd, nd, nd (controls 1 of 18).
KSAQSVLHESRNINSVA / GASTRES / QQYHRLPLS: 0.78, 0.59, 0.60, 0.54, 0.64, 0.55 (mean 0.62; controls 1 of 18).
KSSQSQLLESRNKNSVA / WASTRES / QQYHRLPLS: 2.20, 3.41, 2.33, 3.10, 3.21, 1.98 (mean 2.70; controls 0 of 18).
KSSQSVLYESRNKNSVA / WASTRES / QQYHMLPLS: 2.08, 1.79, nd, 1.16, 2.29, 1.68 (mean 1.80; controls 0 of 18).
KSSQSVLYESRNKNSVA / WCSTRES / QQDHRLPLM: 2.95, nd, nd, nd, 1.90, nd (mean 2.43; controls 2 of 18).
KSSQSVLYESRNKNSVA / WASTRES / QQYHRLPWS: nd, nd, nd, nd, nd, nd (controls 0 of 18).
KSQQSVLYESGNKNSVA / NASTRES / QQYSRLPLF: 0.41, 0.47, 0.06, 0.25, 0.34, 0.23 (mean 0.29; controls 0 of 18).
KMSQSVLYESRNQNSVA / SASTRES / QQYHHLPLS: 0.15, 0.23, 0.03, 0.08, -0.11, 0.23 (mean 0.10; controls 0 of 18).
KSSQSVLYESRNKNNVA / AAQTRES / QQYHRLPLS: 0.98, 1.19, 0.98, 1.39, 1.18, 1.14 (mean 1.14; controls 1 of 18).
KSSQSVLYESFNKNSVA / AASTRES / QQYHRLPLY: 1.87, nd, nd, nd, nd, nd (controls 0 of 18).
KSSQSVLEESVNKNSVA / NASTRES / QQYHRLPLS: 0.30, 0.72, 0.13, 0.25, 0.06, 0.66 (mean 0.35; controls 0 of 18).
KSSQSWRDESRNKNSVA / WASTHSL / QQYHRLPLS: nd, nd, nd, nd, nd, nd (controls 0 of 18).
KSSQSVLYESRNKNSVA / SASTRES / QQYHRLPLM: 0.76, 1.45, 1.43, 1.84, 1.19, 1.39 (mean 1.34; controls 0 of 18).
KSSVSVLYESRNKNSVA / DASTRES / QQYHRLPLS: 0.43, 0.43, 0.18, 0.18, 0.36, 0.95 (mean 0.42; controls 0 of 18).
KSSQSVLYESNNKNSVA / WASTRET / QQYTRLPLT: nd, 0.46, nd, nd, nd, nd (controls 0 of 18).
CSGQSVTYESRNKNSVA / WASTRES / QQYHRLPLS: 1.15, 1.68, 0.16, 0.87, 0.40, 0.87 (mean 0.85; controls 1 of 18).
KSSQSVLYESLNKNSVA / DASTRES / QQYHRLPES: nd, nd, 1.03, nd, 2.25, nd (mean 1.64; controls 0 of 18).
KSSQSVLYESRNKNSVA / MASTRES / QQYHRLPPS: nd, nd, nd, nd, nd, nd (controls 0 of 18).
KSSQSVLYESRNKNSVA / WASTRES / QQYHRMPLS: nd, nd, nd, nd, nd, 3.41 (controls 0 of 18).
KSSQAVLYESANYNSVA / WASTRES / QQYHRLPLS: nd, 2.30, 2.41, nd, nd, 3.05 (mean 2.58; controls 1 of 18).
KSSQSVLMESRNKNSVA / WAETRES / QQYHRLPLE: nd, 3.16, nd, nd, 2.21, 3.67 (mean 3.02; controls 1 of 18).
YSSQSVLAESANKNAVA / WASTREI / QQYHRLPLS: nd, 1.04, nd, nd, nd, nd (controls 0 of 18).
KSSQSVLYESRNKNSVA / EASTRIS / QQYHRLPLS: 0.40, 0.34, 0.34, 0.33, 0.14, 0.21 (mean 0.29; controls 0 of 18).
KSSPSVLYESRNKSSVA / WASTRES / QQYHRLPLR: nd, nd, nd, nd, nd, nd (controls 0 of 18).
KVSQTVLYESRNKNSVA / WASTREF / QQYHRLPLP: 1.63, 3.08, 2.04, 1.66, 1.44, 1.34 (mean 1.87; controls 0 of 18).
KSSQSVLYESRNKNSVA / WASTRES / QEYHRLPLS: nd, nd, nd, nd, nd, nd (controls 0 of 18).
SSSQSLLYESRNKNSIA / WASTRES / QQYHRLPLI: nd, nd, nd, nd, nd, nd (controls 0 of 18).
CSSQSVLYESRNKNSVA / WASTRES / QQYHRLPLS: nd, nd, nd, nd, nd, nd (controls 0 of 18).

Data: MIT Lincoln Laboratory AlphaSeq set, Li et al. 2023, doi:10.1038/s41467-023-39022-2, as distributed in FLAb.